US20220185818A1, “PYRROLOHETEROCYCLIC DERIVATIVE, PREPARATION METHOD THEREFOR, AND APPLICATION THEREOF IN MEDICINE” (Jiangsu Hengrui Medicine Co., Ltd., priority 2019, published 2022)
Read-outs that look alike come from different tables or passages of the source.

Protein sequences, listed by entry. Tags and fused reporters are not part of them. Residues count along the entry.
UniProt P28482, 2-360 limits assumed: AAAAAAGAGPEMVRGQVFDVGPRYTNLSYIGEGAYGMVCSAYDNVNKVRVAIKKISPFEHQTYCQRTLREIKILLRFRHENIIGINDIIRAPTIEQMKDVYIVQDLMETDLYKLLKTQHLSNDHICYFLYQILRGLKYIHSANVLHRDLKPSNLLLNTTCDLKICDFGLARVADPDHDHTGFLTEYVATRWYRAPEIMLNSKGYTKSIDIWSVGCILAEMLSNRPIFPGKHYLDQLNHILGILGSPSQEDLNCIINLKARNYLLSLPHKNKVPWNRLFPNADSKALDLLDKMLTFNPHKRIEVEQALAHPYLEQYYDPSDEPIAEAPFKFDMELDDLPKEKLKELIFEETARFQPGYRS
UniProt P27361, whole entry: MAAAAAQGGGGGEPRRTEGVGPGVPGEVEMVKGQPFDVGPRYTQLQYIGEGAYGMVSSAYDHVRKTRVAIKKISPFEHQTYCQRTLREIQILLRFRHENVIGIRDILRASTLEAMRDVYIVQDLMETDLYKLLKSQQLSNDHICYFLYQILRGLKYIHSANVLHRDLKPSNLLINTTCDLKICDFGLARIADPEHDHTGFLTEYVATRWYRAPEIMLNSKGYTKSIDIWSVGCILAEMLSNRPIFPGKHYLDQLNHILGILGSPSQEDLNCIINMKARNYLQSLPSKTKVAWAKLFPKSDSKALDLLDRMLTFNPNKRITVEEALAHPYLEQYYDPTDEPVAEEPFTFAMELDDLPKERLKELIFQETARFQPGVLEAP

Experiments:
ERK2 = target: T1, ERK2 (Homo sapiens, UniProt P28482); experiment: ERK2 enzyme activity test (ADP-Glo Kinase Assay); type: biochemical
T1 construct: purchased R&D 1879-KS-010
Procedure: (§1) The purpose of this experiment is to detect the inhibitory ability of the compounds on the ERK2 enzyme activity, and evaluate the in vitro activity of the compounds based on the IC50. The ADP-Glo™ Kinase Assay Kit is used in this experiment. Under the action of the enzyme, the substrate is phosphorylated and ADP is produced at the same time. The ADP-Glo reagent is added to remove the unreacted ATP in the reaction system, and the ADP produced by the reaction is detected by the kinase detection reagent. In the presence of the compound, the inhibition rate of the compound is calculated by measuring the signal value.
ATP was diluted to 500 μM with the buffer. The compound was dissolved in DMSO to prepare a stock solution with an initial concentration of 20 mM, and then Bravo (SGC120TH34702, Agilent Technologies) was used to dilute the stock solution to desired concentrations. Finally, a 3 μL of a mixed solution of enzyme and substrate, and 1 μL of different concentrations of the compound (the initial concentration is 50 μM, 4-fold dilution) were added to each well of the 384-well plate, and the plate was incubated at 30° C. for 10 minutes, and finally 1 μL of 500 μM ATP solution was added to each well, and the plate was incubated at 30° C. for 2 hours. Then 5 μL of ADP-Glo was added, and the plate was incubated at 30° C. for 40 minutes. Then 10 μL of kinase detection buffer was added, and the plate was incubated at 30° C. for 40 minutes. The 384-well plate was taken out and placed in a microplate reader (BMG labtech, PHERAstar FS), and the chemiluminescence was measured by the microplate reader.
Microsoft Excel, Graphpad Prism 5 was used to process and analyze the data.

ERK1 = target: T2, ERK1 (Homo sapiens, UniProt P27361); experiment: ERK1 enzyme activity test (ADP-Glo Kinase Assay); type: biochemical
T2 construct: purchased R&D 1879-KS-010
Procedure: as §1, with “the ERK1” for “the ERK2”, “detected with” for “detected by”
ATP was diluted to 300 μM with the buffer. The compound was dissolved in DMSO to prepare a stock solution with an initial concentration of 20 mM, and then Bravo (SGC120TH34702, Agilent Technologies) was used to dilute the stock solution to desired concentrations. […] The 384-well plate was taken out and placed in a microplate reader (BMG labtech, PHERAstar FS), and the chemiluminescence was measured by the microplate reader. […]

Colo205 cells = experiment: In vitro proliferation inhibition test on Colo205 tumor cells (CellTiter-Glo); type: cell-based; settings: Homo sapiens, COLO 205, 72 h; 3 days of culture, CTG; read-out: IC50 value of the inhibition on in vitro Colo205 tumor cell proliferation
Procedure: The purpose of this experiment is to test the inhibitory activity of the compounds on the proliferation of Colo205 cells (CCL-222, ATCC) in vitro. The cells were treated in vitro with different concentrations of the compounds. After 3 days of culture, the cell proliferation was tested with CTG (CellTiter-Glo® Luminescent Cell Viability Assay, Promega, Catalog No. G7573) reagent, and the in vitro activity of the compounds was evaluated according to the IC50 value.
In the following, taking the in vitro proliferation inhibition test method of Colo205 cells as an example, the method in the present disclosure for testing the in vitro proliferation inhibitory activity of the compounds of the present disclosure is described. This method is also applicable to, but not limited to, the in vitro proliferation inhibitory activity test on other tumor cells.
Colo205 cells were digested, centrifuged and then resuspended. The single cell suspension was mixed well, and the density of viable cells was adjusted to 5.0×10^4 cells/ml with cell culture medium (RPMI1640+2% FBS), and 95 μl/well was added to a 96-well cell culture plate. […]
The compound was dissolved in DMSO and prepared into a stock solution with an initial concentration of 20 mM. […] In a microplate reader (BMG labtech, PHERAstar FS), chemiluminescence was measured with the microplate reader. […]

[1] = read-out: IC50 value of the inhibition on ERK2 enzyme activity

Cc1cnc(Nc2ccnn2C)nc1-c1cc2n(c1)C(=O)N([C@H](CO)c1cccc(Cl)c1)C2 [Example 3, (S)-2-(1-(3-Chlorophenyl)-2-hydroxyethyl)-6-(5-methyl-2-((1-methyl-1H-pyrazol-5-yl)amino)pyrimidin-4-yl)-1H-pyrrolo[1,2-c]imidazol-3(2H)-one]
IC50 (ERK2): 2 nM
IC50 (ERK1): 3 nM
IC50 (Colo205 cells): 26 nM

C[C@@H](CO)Nc1ncc(Cl)c(-c2cc3n(c2)C(=O)N([C@H](CO)c2cccc(Cl)c2)C3)n1 [Example 5, 6-(5-Chloro-2-(((S)-1-hydroxypropan-2-yl)amino)pyrimidin-4-yl)-2-((S)-1-(3-chlorophenyl)-2-hydroxyethyl)-1H-pyrrolo[1,2-c]imidazol-3(2H)-one]
IC50 (ERK2; [1]): 7 nM

C[C@H](CO)Nc1ncc(Cl)c(-c2cc3n(c2)C(=O)N([C@H](CO)c2cccc(Cl)c2)C3)n1 [Example 8, 6-(5-Chloro-2-(((R)-1-hydroxypropan-2-yl)amino)pyrimidin-4-yl)-2-((S)-1-(3-chlorophenyl)-2-hydroxyethyl)-1,2-dihydro-3H-pyrrolo[1,2-c]imidazol-3-one]
IC50 (ERK2; [1]): 39 nM

Cc1cnc(Nc2ccnn2C)nc1-c1cc2n(c1)C(=O)N([C@H](CO)c1cccc(Cl)c1)CC2 [Example 9, (S)-2-(1-(3-Chlorophenyl)-2-hydroxyethyl)-6-(5-methyl-2-((1-methyl-1H-pyrazol-5-yl)amino)pyrimidin-4-yl)-3,4-dihydropyrrolo[1,2-c]pyrimidin-1(2H)-one]
IC50 (ERK2; [1]): 6 nM
